From ChEMBL document CHEMBL1133765, “QSAR model for drug human oral bioavailability” (J Med Chem, 2000)

Test: physchem

COc1cc(Cc2cnc(N)nc2N)cc(OC)c1OC [TRIMETHOPRIM]
pKa: 7.2
